# PubChem BioAssay (NCI)
# Only a part is listed here, and it is no random draw. Some compounds were tested as several samples or in several runs, with calls that do not always agree. The source made the active and inactive calls. Rule as the data show it: active = growth inhibition above about 70%; inactive = the rest.
# How the values were obtained:
# [1] = NCI Yeast Anticancer Drug Screen. Data for the rad50 strain (AID 155);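 also: 0% = growth of vehicle-only cultures of the same strain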; settings: S. cerevisiae rad50 strain growth inhibition, active compounds read high
# [2] = NCI Yeast Anticancer Drug Screen. Data for the mec2-1 strain (AID 157); settings: S. cerevisiae mec2-1 strain, active compounds read high
# [3] = NCI Yeast Anticancer Drug Screen. Data for the sgs1 mgt1 strain (AID 161);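 also: 0% = growth of cultures given vehicle only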; settings: S. cerevisiae sgs1 mgt1 strain, active compounds read high
# [4] = NCI Yeast Anticancer Drug Screen. Data for the cln2 rad14 strain (AID 165);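 also: 0% = growth equal to vehicle treated cultures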; settings: S. cerevisiae cln2 rad14 strain, active compounds read high
# [5] = NCI Yeast Anticancer Drug Screen. Data for the bub3 strain (AID 167); settings: S. cerevisiae bub3 mutant strain, active compounds read high
# [6] = NCI Yeast Anticancer Drug Screen. Data for the mlh1 rad18 strain (AID 175); settings: S. cerevisiae mlh1 rad18 strain growth inhibition, active compounds read high
# [7] = at 5.0 µM (retest, dose inferred, filed as 0.5)
# [8] = at 50.0 µM (retest, dose inferred, filed as 5.0)
smiles,measurement,setting,value
Cc1ccc(CN2CCCCC2)o1.O=[N+]([O-])c1cc([N+](=O)[O-])c(O)c([N+](=O)[O-])c1,growth inhibition,[1]; [7],inactive: 19%
same,growth inhibition,[1]; [8],inactive: 60%
same,growth inhibition,[1]; at 50.0 µM,active: 83.3%
same,growth inhibition,[2]; [7],inactive: 13%
same,growth inhibition,[2]; [8],inactive: 55%
same,growth inhibition,[2]; at 50.0 µM,active: 81.8%
same,growth inhibition,[3]; [7],inactive: 39%
same,growth inhibition,[3]; [8],active: 84%
same,growth inhibition,[3]; at 50.0 µM,active: 89.7%
same,growth inhibition,[4]; [7],inactive: 28%
same,growth inhibition,[4]; [8],inactive: 39%
same,growth inhibition,[4]; at 50.0 µM,active: 78%
same,growth inhibition,[5]; [7],inactive: 40%
same,growth inhibition,[5]; [8],inactive: 68%
same,growth inhibition,[5]; at 50.0 µM,active: 80%
same,growth inhibition,[6]; [7],inactive: 21%
same,growth inhibition,[6]; [8],inactive: 63%
same,growth inhibition,[6]; at 50.0 µM,active: 82.5%
Cc1c2ccccc2cc2ccccc12.O=[N+]([O-])c1cc([N+](=O)[O-])c(O)c([N+](=O)[O-])c1,growth inhibition,[1]; at 1.2 µM,inactive: -1%
same,growth inhibition,[1]; at 3.7 µM,inactive: -36%
same,growth inhibition,[1]; [7],inactive: 31%
same,growth inhibition,[1]; at 11.0 µM,inactive: 38%
same,growth inhibition,[1]; at 33.0 µM,active: 80%
same,growth inhibition,[1]; [8],active: 99%
same,growth inhibition,[1]; at 50.0 µM,active: 98.8%
same,growth inhibition,[1]; at 100.0 µM,active: 96%
same,growth inhibition,[2]; at 1.2 µM,inactive: -1%
same,growth inhibition,[2]; at 3.7 µM,inactive: 2%
same,growth inhibition,[2]; [7],inactive: 21%
same,growth inhibition,[2]; at 11.0 µM,inactive: 8%
same,growth inhibition,[2]; at 33.0 µM,inactive: 26%
same,growth inhibition,[2]; [8],active: 100%
same,growth inhibition,[2]; at 50.0 µM,active: 99.4%
same,growth inhibition,[2]; at 100.0 µM,active: 97%
same,growth inhibition,[3]; [7],inactive: 34%
same,growth inhibition,[3]; [8],active: 99%
same,growth inhibition,[3]; at 50.0 µM,active: 99.1%
same,growth inhibition,[4]; [7],inactive: 21%
same,growth inhibition,[4]; [8],active: 98%
same,growth inhibition,[4]; at 50.0 µM,active: 98.5%
same,growth inhibition,[5]; at 1.2 µM,inactive: 1%
same,growth inhibition,[5]; at 3.7 µM,inactive: -3%
same,growth inhibition,[5]; [7],inactive: 18%
same,growth inhibition,[5]; at 11.0 µM,inactive: 1%
same,growth inhibition,[5]; at 33.0 µM,inactive: 31%
same,growth inhibition,[5]; [8],active: 99%
same,growth inhibition,[5]; at 50.0 µM,active: 98.8%
same,growth inhibition,[5]; at 100.0 µM,active: 97%
same,growth inhibition,[6]; [7],inactive: 28%
same,growth inhibition,[6]; [8],active: 99%
same,growth inhibition,[6]; at 50.0 µM,active: 99.2%
Cc1c([N+](=O)[O-])cc([N+](=O)[O-])c(-c2ccc([N+](=O)[O-])cc2[N+](=O)[O-])c1[N+](=O)[O-],growth inhibition,[1]; [7],active: 92%
same,growth inhibition,[1]; [8],active: 93%
same,growth inhibition,[1]; at 50.0 µM,inactive: 10.7%
same,growth inhibition,[2]; [7],active: 93%
same,growth inhibition,[2]; [8],active: 96%
same,growth inhibition,[2]; at 50.0 µM,inactive: 14.4%
same,growth inhibition,[3]; [7],active: 98%
same,growth inhibition,[3]; [8],active: 96%
same,growth inhibition,[3]; at 50.0 µM,inactive: 42%
same,growth inhibition,[4]; [7],active: 84%
same,growth inhibition,[4]; [8],active: 94%
same,growth inhibition,[4]; at 50.0 µM,inactive: -5.6%
same,growth inhibition,[5]; [7],active: 98%
same,growth inhibition,[5]; [8],active: 95%
same,growth inhibition,[5]; at 50.0 µM,inactive: -2.05%
same,growth inhibition,[6]; [7],active: 96%
same,growth inhibition,[6]; [8],active: 95%
same,growth inhibition,[6]; at 50.0 µM,inactive: 35.5%
O=[N+]([O-])c1ccc(-c2ccc([N+](=O)[O-])cc2[N+](=O)[O-])c([N+](=O)[O-])c1,growth inhibition,[1]; [7],inactive: 40%
same,growth inhibition,[1]; [8],inactive: 65%
same,growth inhibition,[1]; at 50.0 µM,active: 70.8%
same,growth inhibition,[2]; [7],inactive: 46%
same,growth inhibition,[2]; [8],active: 73%
same,growth inhibition,[2]; at 50.0 µM,active: 75.8%
same,growth inhibition,[3]; [7],inactive: 18%
same,growth inhibition,[3]; [8],active: 96%
same,growth inhibition,[3]; at 50.0 µM,active: 87.2%
same,growth inhibition,[4]; [7],inactive: 21%
same,growth inhibition,[4]; [8],active: 96%
same,growth inhibition,[4]; at 50.0 µM,inactive: 41.4%
same,growth inhibition,[5]; [7],inactive: 44%
same,growth inhibition,[5]; [8],active: 97%
same,growth inhibition,[5]; at 50.0 µM,active: 84.2%
same,growth inhibition,[6]; [7],inactive: 37%
same,growth inhibition,[6]; [8],inactive: 59%
same,growth inhibition,[6]; at 50.0 µM,active: 78.1%
Cc1ccc2c(ccc3c(C)cccc32)c1C.O=[N+]([O-])c1cc([N+](=O)[O-])c(O)c([N+](=O)[O-])c1,growth inhibition,[1]; [7],inactive: 2%
same,growth inhibition,[1]; [8],inactive: 8%
same,growth inhibition,[1]; at 50.0 µM,inactive: 28.4%
same,growth inhibition,[2]; [7],inactive: 2%
same,growth inhibition,[2]; [8],inactive: 6%
same,growth inhibition,[2]; at 50.0 µM,inactive: 23.1%
same,growth inhibition,[3]; [7],inactive: 7%
same,growth inhibition,[3]; [8],inactive: 17%
same,growth inhibition,[3]; at 50.0 µM,inactive: 16%
same,growth inhibition,[4]; [7],inactive: -1%
same,growth inhibition,[4]; [8],inactive: -19%
same,growth inhibition,[4]; at 50.0 µM,inactive: 9.7%
same,growth inhibition,[5]; [7],inactive: 4%
same,growth inhibition,[5]; [8],inactive: 12%
same,growth inhibition,[5]; at 50.0 µM,active: 91%
same,growth inhibition,[6]; [7],inactive: 0%
same,growth inhibition,[6]; [8],inactive: 5%
same,growth inhibition,[6]; at 50.0 µM,inactive: 29.8%
Cc1c([N+](=O)[O-])cc([N+](=O)[O-])c(-c2c([N+](=O)[O-])cc([N+](=O)[O-])c(C)c2[N+](=O)[O-])c1[N+](=O)[O-],growth inhibition,[1]; [7],inactive: 15%
same,growth inhibition,[1]; [8],active: 87%
same,growth inhibition,[1]; at 50.0 µM,inactive: 41.8%
same,growth inhibition,[2]; [7],inactive: 28%
same,growth inhibition,[2]; [8],active: 88%
same,growth inhibition,[2]; at 50.0 µM,inactive: 26%
same,growth inhibition,[3]; [7],inactive: 53%
same,growth inhibition,[3]; [8],active: 91%
same,growth inhibition,[3]; at 50.0 µM,active: 82.8%
same,growth inhibition,[4]; [7],inactive: 5%
same,growth inhibition,[4]; [8],active: 78%
same,growth inhibition,[4]; at 50.0 µM,inactive: 49.1%
same,growth inhibition,[5]; [7],inactive: 46%
same,growth inhibition,[5]; [8],active: 90%
same,growth inhibition,[5]; at 50.0 µM,inactive: 21.8%
same,growth inhibition,[6]; [7],inactive: 25%
same,growth inhibition,[6]; [8],active: 90%
same,growth inhibition,[6]; at 50.0 µM,inactive: 53.9%
O=C1c2cc([N+](=O)[O-])ccc2-c2c1cc([N+](=O)[O-])cc2[N+](=O)[O-].c1ccc2c(c1)Cc1ccccc1-2,growth inhibition,[1]; [7],active: 99%
same,growth inhibition,[1]; [8],active: 95%
same,growth inhibition,[1]; at 50.0 µM,active: 79.2%
same,growth inhibition,[2]; [7],active: 100%
same,growth inhibition,[2]; [8],active: 97%
same,growth inhibition,[2]; at 50.0 µM,active: 90.3%
same,growth inhibition,[3]; [7],active: 100%
same,growth inhibition,[3]; [8],inactive: 35%
same,growth inhibition,[3]; at 50.0 µM,active: 88.7%
same,growth inhibition,[4]; [7],active: 97%
same,growth inhibition,[4]; [8],active: 89%
same,growth inhibition,[4]; at 50.0 µM,active: 70.3%
same,growth inhibition,[5]; [7],active: 99%
same,growth inhibition,[5]; [8],active: 96%
same,growth inhibition,[5]; at 50.0 µM,active: 93.5%
same,growth inhibition,[6]; [7],active: 99%
same,growth inhibition,[6]; [8],active: 93%
same,growth inhibition,[6]; at 50.0 µM,active: 72.5%
CN1CCC(Cc2ccccc2)CC1.O=[N+]([O-])c1cc([N+](=O)[O-])c(O)c([N+](=O)[O-])c1,growth inhibition,[1]; at 50.0 µM,inactive: 39.9%
same,growth inhibition,[2]; at 50.0 µM,inactive: 7.85%
same,growth inhibition,[3]; at 50.0 µM,inactive: 27.7%
same,growth inhibition,[4]; at 50.0 µM,inactive: 24.7%
same,growth inhibition,[5]; at 50.0 µM,inactive: 6.25%
same,growth inhibition,[6]; at 50.0 µM,inactive: 29.4%
